Amino acid sequences for entries named in this document (tags omitted).
UniProt P30838, whole entry: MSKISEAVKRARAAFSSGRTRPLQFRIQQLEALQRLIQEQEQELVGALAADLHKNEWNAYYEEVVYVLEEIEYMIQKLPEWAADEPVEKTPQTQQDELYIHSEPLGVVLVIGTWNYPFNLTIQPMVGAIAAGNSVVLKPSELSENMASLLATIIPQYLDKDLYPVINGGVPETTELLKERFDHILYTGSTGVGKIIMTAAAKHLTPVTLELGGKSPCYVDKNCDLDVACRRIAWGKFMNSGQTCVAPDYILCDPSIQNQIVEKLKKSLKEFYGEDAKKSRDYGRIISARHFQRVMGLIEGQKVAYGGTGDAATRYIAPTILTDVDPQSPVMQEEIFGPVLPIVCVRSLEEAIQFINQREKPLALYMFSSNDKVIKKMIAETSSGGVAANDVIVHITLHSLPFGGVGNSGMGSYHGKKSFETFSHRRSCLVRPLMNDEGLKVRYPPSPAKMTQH

According to paper PMC13266984 (Journal of medicinal chemistry, 2026):

What was measured:
[1] = target: OE19 (3A1) (Homo sapiens, UniProt P30838); assay: Cellular ALDEFLUOR assay in OE19 cells (preferential ALDH3A1 expression); conditions: read-out: cellular IC50 (Aldefluor)
[2] = target: T1, Human ALDH3A1 (Homo sapiens, UniProt P30838); assay: ALDH3A1 biochemical assay (benzaldehyde/NADP+, diaphorase-resazurin readout, 1,536-well); conditions: read-out: ALDH3A1 biochemical IC50
[3] = target: T1, Human ALDH3A1; assay: Diazirine photo-crosslinking with recombinant ALDH3A1 and LC-MS/MS proteomics; conditions: UV irradiation, HPLC-MS/MS

With `C#CCCC1(CCOc2cccc(CNC(=O)c3csc(N4CCN(c5cccc(C(F)(F)F)c5)CC4)n3)c2)N=N1` the IC50 [1] was 15 nM, the IC50 [2] was 738 nM and the “peptide sequence modified by photo-crosslinking” value [3] was “WNAYYEEVVYVLE”.
